For two compounds, k obs / 1 results are on record in ChEMBL document CHEMBL1129346, “First examples of peptidomimetic inhibitors of interleukin-1 beta converting enzyme” (J Med Chem, 1996).

The target in assay [1] is T1, Caspase-1 (Homo sapiens) (UniProt P29466).
T1 sequence (whole entry): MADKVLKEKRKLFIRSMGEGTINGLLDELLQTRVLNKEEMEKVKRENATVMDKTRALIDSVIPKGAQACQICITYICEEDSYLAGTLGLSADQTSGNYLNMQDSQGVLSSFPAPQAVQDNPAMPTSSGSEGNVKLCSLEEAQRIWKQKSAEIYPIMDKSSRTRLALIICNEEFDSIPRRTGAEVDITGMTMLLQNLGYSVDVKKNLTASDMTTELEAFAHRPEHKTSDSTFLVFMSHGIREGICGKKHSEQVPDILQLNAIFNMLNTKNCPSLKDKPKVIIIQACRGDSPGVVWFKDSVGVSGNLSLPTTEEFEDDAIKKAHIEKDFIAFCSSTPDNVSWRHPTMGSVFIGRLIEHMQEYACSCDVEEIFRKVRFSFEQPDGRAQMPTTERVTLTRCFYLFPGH
Description: Second order rate constant of inactivation for compound was measured against Interleukin-1-beta converting enzyme partially purified from THP-1 cells. The essentials: (§1)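 ICE was partially purified from THP-1 cells by DEAE-Sephacel and Sephadex G-75 steps. The assay buffer was 10 mM HEPES pH 7.5 with 25% glycerol and 1 mM DTT, and the substrate was 10 μM Suc-Tyr-Val-Ala-Asp-AMC. Fluorescence progress curves were recorded at 37 °C over 30 min, and the nonlinear curves were analysed by the Tian–Tsou method. Standard error was <10%.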

The target in assay [2] is T1, Caspase-1 (Homo sapiens). The assay is described as follows: The binding affinity of compound was measured against Interleukin-1-beta converting enzyme in monocytic cells. The class given is cell-based. The essentials: as §1

Turning to `CC(C)[C@H](NC(=O)OCc1ccccc1)C(=O)N[C@@H](C)C(=O)N[C@@H](CC(=O)O)C(=O)COc1cc(C(F)(F)F)nn1-c1ccccc1`, the k obs / 1 at Caspase-1 (Homo sapiens) [1] was determined as 280000 M⁻¹ s⁻¹.
At Caspase-1 (Homo sapiens) [2], `O=C(O)C[C@H](NC(=O)Cn1c(-c2cccs2)ncc(NC(=O)OCc2ccccc2)c1=O)C(=O)COC(=O)c1c(Cl)cccc1Cl` displayed a k obs / 1 of 272000 M⁻¹ s⁻¹.
